# Laboratory results: patent publication US20240050434A1, “HORMAD1 THERAPEUTICS” (Royal Cancer Hospital, priority 2020, published 2024)
# Entries after “also recorded” stand apart in the source; their conditions may differ.
# How the values were obtained:
# [1] = test system: RPE1 cells expressing a doxycycline-inducible HORMAD1 expression construct; settings: 200 nM, 3 days post drugging
# Experimental: (§1) A. Diagram of experimental outline. Cells were exposed to doxycycline for 3 days, arrested in mitosis using 300 nM nocodazole or 100 nM Paclitaxel. Mitotic cells were filmed every 4 minutes for 1200 minutes, and the time cells remained arrested in mitosis before exiting via mitotic slippage was assessed. […] RPE1 cells expressing a doxycycline-inducible HORMAD1 cDNA expression construct were exposed to doxycycline or vehicle (H2O) for three days at which point cells were exposed to 300 nM nocodazole and filmed every 4 minutes using time-lapse microscopy. The time individual cells remained arrested in mitosis was quantified and presented as the % of cells arrested in mitosis at each time point. Data reflects a total of 125 cells from 3 biological repeats and was analysed using Mantel-Cox test. C. […] The time individual cells remained arrested in mitosis was quantified and presented as the % of cells arrested in mitosis at each time point. Data reflects a total of 125 cells from 3 biological repeats and was analysed using Mantel-Cox test. […] H1299 cells expressing two individual, doxycycline-inducible, shRNA particles targeting HORMAD1 as well as a non-targeting control were grown for three days in the presence of doxycycline at which point cell lysates were generated and analysed by SDS-PAGE and western blotting using anti-HORMAD1 and anti-β-ACTIN antibodies. […]
# [2] = test system: HORMAD1 positive organoid KCL625; test: HORMAD1 positive organoid KCL625 viability by cell titer glo; type: cell-based; settings: indicated doses, 10 days
# Experimental: . Organoids were treated with the indicated doses of drug for 10 days and cell viability assessed by cell titer glo. Data is presented as mean and standard deviation of triplicate wells;
# [3] = test system: SUM159 cells expressing a doxycycline-inducible HORMAD1 construct; test: Clonogenic survival assay (SRB) in SUM159 cells with doxycycline-inducible HORMAD1; type: cell-based; settings: increasing doses, 10-14 days, normalised to vehicle
# Experimental: (§2) Cell confluence was analysed every 6 hours for 10 days, using incucyte software. Data are from 3 biological replicates and analysed using a two-way ANOVA. […] RPE1 cells expressing a doxycycline-inducible HORMAD1 expression construct were exposed to doxycycline or vehicle (H2O) and were exposed to 20 nM of the Aurora B inhibitor, AZD1152-HQPA. Cell confluence was analysed every 6 hours for 10 days, using incucyte software. Data are from 3 biological replicates and analysed using a two-way ANOVA. […] 7-10 days post drugging, cells were fixed, stained with SRB, and colonies were counted using Cell Profiler. […] 10 days post drugging, cells were fixed, stained with SRB, and colonies were counted using Cell Profiler. […] 7-10 days post drugging, cells were fixed, stained with SRB, and colonies were counted using Cell Profiler. […] 10 days post drugging, cells were fixed, stained with SRB, and colonies were counted using Cell Profiler.
# RPE1 and SUM159 cells expressing a doxycycline-inducible HORMAD1 construct were treated with doxycycline or vehicle. […] Surviving fractions were calculated (normalised to vehicle treated cells). […] Data from 3 replicas was analysed using 2-way ANOVA. […] Surviving fractions were calculated (normalised to vehicle treated cells). Data from 4 replicas was analysed using 2-way ANOVA. […]
# [4] = test system: RPE1 cells expressing a doxycycline-inducible HORMAD1 expression construct; test: Mitotic slippage by time-lapse microscopy in nocodazole-arrested RPE1 cells; type: cell-based; settings: 300 nM nocodazole arrest, then 100-200 nM reversine, 50 nM BOS172722 or AZD1152-HQPA
# Experimental: as §1
# [5] = test system: RPE1 cells expressing a doxycycline-inducible HORMAD1 construct; test: Incucyte time-lapse confluence/proliferation in RPE1 cells with doxycycline-inducible HORMAD1; type: cell-based; settings: incucyte confluence; 200 nM BOS172722 or 20 nM AZD1152-HQPA 10 days; 3 μM BAY-1816032 14 days
# Experimental: as §2
# (§3) RPE1 cells were reverse transfected with BUB1 or control siRNA particles for 3 days. Cell lysates were collected, and analysed by western blotting using anti-BUB1 and anti-β-ACTIN antibodies. […] 5 days post transfection, cellular viability was estimated using cell titer glo reagent and surviving fractions were calculated relative to DMSO treated cells. […] Cells were fixed, stained with SRB, and cellular viability was estimated using SRB absorbance readings. […]
# [6] = test system: RPE1 cells expressing a doxycycline-inducible HORMAD1 construct; test: Clonogenic survival assay (SRB) in RPE1 cells with doxycycline-inducible HORMAD1; type: cell-based; settings: increasing doses, 7-14 days, normalised to vehicle
# Experimental: as §2, §3
smiles,measurement,setting,value
"CCOc1cc(-c2nncn2C)ccc1Nc1ncc2cc(C)nc(NCC(C)(C)C)c2n1 [BOS172722, N2-(2-Ethoxy-4-(4-methyl-4 H-1,2,4-triazol-3-yl)phenyl)-6-methyl-N8-neopentylpyrido[3,4-d]pyrimidine-2,8-diamine]","cells with centromere containing micronuclei, HORMAD1 expressing RPE1 cells",[1],increased centromere containing micronuclei
same,sensitivity (surviving fraction versus DMSO) of organoid KCL625,[2],reduced surviving fraction; also recorded: high sensitivity
same,clonogenic survival / sensitivity of HORMAD1 expressing versus HORMAD1-negative SUM159 cells,[3],more effectively inhibited; also recorded: reduced clonogenic survival; also recorded: increased MPSI inhibitor sensitivity
same,mitotic slippage / mitotic exit in HORMAD1 induced RPE1 cells,[4],Very similar results; also recorded: premature mitotic slippage
same,cellular growth / fitness of HORMAD1 expressing RPE1 cells versus vehicle-induced cells under drug,[5],marked decrease in cellular growth; also recorded: decreased cellular fitness
same,clonogenic survival / sensitivity of HORMAD1 expressing versus HORMAD1-negative RPE1 cells,[6],more effectively inhibited; also recorded: reduced clonogenic survival; also recorded: increased MPSI inhibitor sensitivity
